This passage reports IC50 results from ChEMBL document CHEMBL1129593, “Halogenated mazindol analogs as potential inhibitors of the cocaine binding site at the dopamine transporter” (J Med Chem, 1996).

The chains behind the UniProt entries cited, without tags or fusion partners.
UniProt P23977, whole entry: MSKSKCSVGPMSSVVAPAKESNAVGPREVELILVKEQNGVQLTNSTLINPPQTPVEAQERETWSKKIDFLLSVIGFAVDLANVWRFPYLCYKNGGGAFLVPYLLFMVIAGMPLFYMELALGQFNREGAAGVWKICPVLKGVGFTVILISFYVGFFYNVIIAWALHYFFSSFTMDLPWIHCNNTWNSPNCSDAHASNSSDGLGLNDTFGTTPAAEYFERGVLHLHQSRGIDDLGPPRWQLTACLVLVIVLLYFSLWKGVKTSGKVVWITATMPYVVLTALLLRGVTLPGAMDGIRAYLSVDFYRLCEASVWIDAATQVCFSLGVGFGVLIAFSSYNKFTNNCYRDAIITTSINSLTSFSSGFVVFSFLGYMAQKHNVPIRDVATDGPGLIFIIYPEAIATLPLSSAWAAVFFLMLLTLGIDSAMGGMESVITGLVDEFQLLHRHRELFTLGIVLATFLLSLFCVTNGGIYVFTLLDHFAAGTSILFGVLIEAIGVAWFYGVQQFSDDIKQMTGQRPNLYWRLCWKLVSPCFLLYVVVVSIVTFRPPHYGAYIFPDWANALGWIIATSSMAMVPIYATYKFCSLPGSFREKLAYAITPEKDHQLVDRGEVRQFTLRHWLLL

The target in this assay is Sodium-dependent dopamine transporter (Rattus norvegicus, UniProt P23977). The experiment in a line: Inhibition of [3H]WIN-35428 binding to the dopamine transporter in rat brain. In kind it is tissue-based. In short, it runs like this:
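Striatal tissue from male Sprague-Dawley rats (200-250 g), 0.1 mg original wet weight per tube. Nonspecific binding was defined with 30 µM (R)-(-)-cocaine. Stopped by filtration through polyethylenimine-soaked GF/B filters with three ice-cold buffer washes. Equilibrium binding analysis.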

Turning to `OC1(c2ccccc2Br)c2ccccc2C2=NCCN21` (stereo unspecified), the IC50 – broadly, the point on the concentration scale where inhibition reaches its midpoint – was 1340 nM.
